## Ab-14 light chain CDR variants: yeast mating affinities

Target peptide (SARS-CoV-2 spike, HR2 region): PDVDLGDISGINAS

Parent scFv Ab-14: VH joined to VL by three GGGGS repeats. Changes lie in the light chain CDRs alone.
VH: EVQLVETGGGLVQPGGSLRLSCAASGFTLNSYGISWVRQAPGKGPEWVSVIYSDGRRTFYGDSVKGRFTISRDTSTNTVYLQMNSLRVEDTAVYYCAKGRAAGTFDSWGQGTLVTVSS
VL: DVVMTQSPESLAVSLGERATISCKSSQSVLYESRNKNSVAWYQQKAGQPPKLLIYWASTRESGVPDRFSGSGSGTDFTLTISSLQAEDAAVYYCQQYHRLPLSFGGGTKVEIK

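The parent was found by panning a naive human phage display library on the peptide. The variants were designed computationally from a first round of random CDR variants and then made and measured. Several design methods are mixed in this list. Affinity was read by AlphaSeq, a pooled yeast mating assay with surface-displayed partners. After mating in shaken culture at 30 °C for 16 h, diploids were selected and their barcode pairs sequenced. The ratio of observed to expected reads was calibrated, replicate by replicate, on BCL2-family standards whose Kd was known from biolayer interferometry. Each pool was mated in six replicate cultures.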

The parent's light chain CDRs are KSSQSVLYESRNKNSVA, WASTRES, QQYHRLPLS; each variant's own CDRs replace them letter for letter.
Variants here have more than six changes.
Values are apparent Kd, the geometric mean of the replicates that gave a signal; lower means stronger binding.
A pair that was not seen in any replicate is written "no signal"; this usually means weak binding, but a binder can also be missed.
A sequence measured in both rounds can read differently, since the two assays cover different ranges.
Of ten entries with the parent sequence, four were seen in most replicates (averages 2.2 nM to 240 nM), three in one and three in none, so single entries are noisy.
In the paper, a design with two or fewer of six values counts as a poor binder.
As a blank, each scFv also met three strains without target: over all light chain designs, 4% of these pairings were detected, typically at 430 nM and seldom below 38 nM.

For KNDISHLGESRNKNAVA | NASTREE | QQYHRLPLS, the assay gave 800 pM (6 of 6 replicates).
For AFTNSIFYGQRDSNSIA | HADVLEK | QQYFRFPLA, the assay gave 24 nM (6 of 6 replicates).
For KYSFSELYESRNQNSVA | EASCREE | QQYHRLPLS, the assay gave 4.5 nM (6 of 6 replicates).
For MIAESVMYESRNRNSVA | DNSTRED | QCYDRLPLS, the assay gave 270 nM (2 of 6 replicates).
For KLRQMTHIESFNKNNVA | EMTTRES | QSYDRLPLS, the assay gave 21 nM (6 of 6 replicates).
For KISQMFYYESINQNSVA | QKSTREE | QDYHRLPLS, the assay gave 4.2 nM (6 of 6 replicates).
For TLTQSVYMESHNKNSVA | DLSTRGS | QQYHRLPLS, the assay gave 950 pM (6 of 6 replicates).
For KLYYNVGTMSHNKQSIA | DMERRED | QQYHRLPLS, the assay gave 1.4 nM (6 of 6 replicates).
For KLSQSVRMESFNKDNVA | ENSTREA | QDYHRLPLS, the assay gave 79 nM (3 of 6 replicates).
For KLQMSNLYESRMHNSVA | DASVRES | QQYHRLPLS, the assay gave 940 pM (6 of 6 replicates).
For KLYQMTGIESHAKNSLA | DANRREA | QQYHRLPLS, the assay gave 2.4 nM (6 of 6 replicates).
For MVSQLMLWGMHVKNSIA | EAVTRLN | QQYDRLPLF, the assay gave 9.3 nM (6 of 6 replicates).
For SLTRFNLQNQGNSNNIA | DTNQTQE | QQYFRLPFA, the assay gave 700 pM (6 of 6 replicates).
For KLSYSWPGESRNKNSVA | DANTRES | QQYHRLPLS, the assay gave 910 pM (6 of 6 replicates).
For KLGSMVLLEYGGKNSIA | QQSTREE | QQYDRLPLS, the assay gave 12 nM (6 of 6 replicates).
For NLVGRVPDNYQERNAIA | DMHCRAG | QQYERLPLA, the assay gave 40 nM (2 of 6 replicates).
For KISGYLNHESKAKNNVA | EMVNRES | QQYDRLPLS, the assay gave 2.1 nM (6 of 6 replicates).
For SLMNLMGGIEEMKNSIA | NQETGVR | QQYAHLPLV, the assay gave 130 nM (4 of 6 replicates).
For IVSQLMLWGYHAKNSIA | EAEQRLN | QQYERLPLF, the assay gave 190 nM (2 of 6 replicates).
For KLTQSVNYLSRVMNSVA | DNSTREA | QQYFRLPLS, the assay gave 980 pM (6 of 6 replicates).
For MVTQMAMTGMRNKRSVA | NAEMREN | QQYHRLPLI, the assay gave 13 nM (6 of 6 replicates).
For MVNGIMDHLSKQTNNVA | ETTTRER | QQYERLPLS, the assay gave 1.8 nM (6 of 6 replicates).
For VFQEYVQGVEQDYNNIA | ENSYASR | QQYFRLPLA, the assay gave no signal (0 of 6 replicates).
For KVSPSYLYEDRAFNSVA | NASTRES | QQYHRLPLS, the assay gave 1.5 nM (6 of 6 replicates).
For MVTLQLRNGHELQNPIA | EASHRAA | QQYAHLPLG, the assay gave 4.5 nM (6 of 6 replicates).
For IVSQLMLWGMHHKNSIA | EAQTKLN | QQYDRLPLF, the assay gave 29 nM (6 of 6 replicates).
For KVSPSWEYESRNKQSVA | HASQREE | QQYHRLPLS, the assay gave 1.1 nM (6 of 6 replicates).
For KLRLHNLMFYQNENSIA | DVSNRAY | QQYYHLPLN, the assay gave 9.6 nM (6 of 6 replicates).
For KIQDNLGELLSQINSVA | STEEKSD | QSYMRLPLS, the assay gave 260 nM (3 of 6 replicates).
For NITQQGDNMGDQRANVA | NGETLEH | QQYAHLPLL, the assay gave 15 nM (6 of 6 replicates).
For MVSQLMVWGLHAKNSIA | EAQTRCN | QQYDRLPLF, the assay gave 110 nM (2 of 6 replicates).
For MFDQQTMNENDKNNAVA | EVNHLVN | QQYAQLPLI, the assay gave 36 nM (6 of 6 replicates).
For KLSQLFYKESKKKNNVA | EMTTRGS | QQYDRLPLS, the assay gave 12 nM (6 of 6 replicates).
For MLSQMWAIGSKVSNSVA | QASMRFN | QQYDRLPLI, the assay gave 42 nM (6 of 6 replicates).
For KVSQFMRGLTQRKDSIA | DNNTRSN | QQYDRLPLS, the assay gave 88 nM (3 of 6 replicates).
For IVSQLMIWGMHVKNSIA | EAELRLN | QQYERLPLF, the assay gave 35 nM (3 of 6 replicates).
For KLGMTVGYEQRNKSRVA | DNNTREE | QQYDRLPLS, the assay gave 48 nM (6 of 6 replicates).
For TITEFMDNLSRNRNNVA | DTSTLGS | QSYDRLPLS, the assay gave 8.1 nM (6 of 6 replicates).
For ILMQPYKEPGAAYNNIA | DGSIRLQ | QQYHRLPLV, the assay gave 3.4 nM (6 of 6 replicates).
For MVVGPDEGEEHNWQSVA | SAEARAM | QQYFRLPLM, the assay gave 10 nM (6 of 6 replicates).
For MLLQATMYGERNRNSVA | HASTRND | QQYHRLPLI, the assay gave 1.6 nM (3 of 6 replicates).
For QMTGQLFEQGNRSEPIA | HESMKEK | QQYFQLPLT, the assay gave 170 nM (3 of 6 replicates).
For KFQQSVCYEDRVKNSVA | NASDRMS | QQYHRLPLS, the assay gave 1.6 nM (6 of 6 replicates).
For FSSQSWLMEGRNDNSVA | SASTRED | QQYHRLPLS, the assay gave 620 pM (6 of 6 replicates).
For ALSQSMDMTSRNKNSVA | DLTVREN | QQYHRLPLS, the assay gave 3.0 nM (6 of 6 replicates).
For IISQVDAYESRVKNSIA | DQSTRGS | QQYDRLPLS, the assay gave 24 nM (6 of 6 replicates).
For TIGGTLMYGVRNRSNVA | EVSERLN | QQYDRLPLM, the assay gave 35 nM (6 of 6 replicates).

The closing 5 entries, repeated:

CDR-L1	CDR-L2	CDR-L3	apparent Kd	seen in
KFQQSVCYEDRVKNSVA	NASDRMS	QQYHRLPLS	1.6 nM	6 of 6
FSSQSWLMEGRNDNSVA	SASTRED	QQYHRLPLS	620 pM	6 of 6
ALSQSMDMTSRNKNSVA	DLTVREN	QQYHRLPLS	3.0 nM	6 of 6
IISQVDAYESRVKNSIA	DQSTRGS	QQYDRLPLS	24 nM	6 of 6
TIGGTLMYGVRNRSNVA	EVSERLN	QQYDRLPLM	35 nM	6 of 6

Values reported by Li et al. 2023, doi:10.1038/s41467-023-39022-2 (FLAb copy).